The subject of assay [1] is SJSA-1 cells. In words: SJSA-1 CellTiter-Glo luminescent cell viability assay (Protocol B). The settings on record: Homo sapiens, SJSA-1, 72 h, read-out: SJSA1 IC50 (μM) (Protocol B). (In general: ATP-based viability assays read luminescence as a measure of living cells.)
Assay [2] concerns SJSA-1 cells. In words: SJSA-1 growth inhibition, sulphorhodamine B (SRB) method (Protocol A). As to conditions: Homo sapiens, SJSA-1, 72 h, read-out: SJSA-1 IC50 (μM) (Protocol A).

SMILES strings stand for the structures.

Regarding `CC(C)(O)c1cc(F)c2c(c1)C(=O)N(Cc1ccc(Cl)cc1)[C@@]2(OCC1(CO)CC1)c1ccc(Cl)cc1` [Example 2, (3R)-3-(4-chlorophenyl)-2-[(4-chlorophenyl)methyl]-4-fluoro-3-{[1-(hydroxymethyl)cyclopropyl]methoxy}-6-(2-hydroxypropan-2-yl)-2,3-dihydro-1H-isoindol-1-one], the IC50 with SJSA-1 cells [1] turned out to be 0.46 µM; with SJSA-1 cells [2], 0.33 µM.

By IC50 is commonly meant the concentration at which inhibition is half-maximal.

For the origin of these results see patent US10544132B2, “Isoindolinone inhibitors of the MDM2-p53 interaction having anticancer activity” (ASTEX THERAPEUTICS LIMITED, priority 2015, dated 2020).
